Read-outs that look alike come from different tables or passages of the source.
What was measured:
[1] = dietary inclusion 1.0%
[2] = group B, 0.5% in diet, 29 days
[3] = Growth performance of broiler chickens, floor pen trial over five weeks (Example 6); format: in vivo
Text: The objective of the present trial (Trial A) was to evaluate the effects of sucinic acid on the growth performance of broiler chickens in a floor pen trial over five weeks. Succinic acid was supplemented at four different dose levels. […] Each group was placed in one floor pen littered with wood shavings and allocated to one of the different treatments. Each treatment was replicated with 4 groups per sex. Birds had ad libitum access to feed and tap water. […] Chickens received diets based on soybean meal, and wheat as main ingredients (Table 6). […] The target quantities of succinic acid were added on top to the feed, mixed with appropriate amounts of maize starch as a carrier: […] For the statistical evaluation of the data, a one-factorial analysis of variance for each diet (factor: treatment) was carried out. Where significant treatment effects (p<0.05) were indicated, the differences among treatment means were subsequently analyzed with the Newman-Keuls test.

O=C(O)CCC(=O)O [Succinic acid, succinic acid]
Feed conversion (feed/gain ratio) ([1]; Day 0-14): 1.48
Feed conversion (feed/gain ratio) ([1]; Day 14-24): 1.33
Feed conversion (feed/gain ratio) ([1]; Day 24-36): 1.41
Feed conversion (feed/gain ratio) ([1]; Overall, day 0-36): 1.40
Feed conversion (feed/gain ratio), Index ([1]; overall day 0-36, Neg. Control = 100.0): 93.3%
Weight gain, relative to control (100) [2]: (105)
Feed intake ([2]; n = 4): 416 ± 37 g/day
Feed conversion, relative to control (100) ([3]; Day 1-22, 2.5 g/kg feed): 94.3
Weight gain, relative to control (100) ([3]; Day 1-22, 2.5 g/kg feed): 109.7
Feed conversion, relative to control (100) ([3]; Day 1-22, 5 g/kg feed): 100.9
Weight gain, relative to control (100) ([3]; Day 1-22, 5 g/kg feed): 103.9
Feed conversion, relative to control (100) ([3]; Day 1-22, 7.5 g/kg feed): 94.8
Weight gain, relative to control (100) ([3]; Day 1-22, 7.5 g/kg feed): 110.5
Feed conversion, relative to control (100) ([3]; Day 1-22, 10 g/kg feed): 95.4
Weight gain, relative to control (100) ([3]; Day 1-22, 10 g/kg feed): 108.6
Feed conversion, relative to control (100) ([3]; Day 1-36, 2.5 g/kg feed): 98.7
Weight gain, relative to control (100) ([3]; Day 1-36, 2.5 g/kg feed): 103.6
Feed conversion, relative to control (100) ([3]; Day 1-36, 5 g/kg feed): 101.2
Weight gain, relative to control (100) ([3]; Day 1-36, 5 g/kg feed): 100.4
Feed conversion, relative to control (100) ([3]; Day 1-36, 7.5 g/kg feed): 99.4
Weight gain, relative to control (100) ([3]; Day 1-36, 7.5 g/kg feed): 104.5
Feed conversion, relative to control (100) ([3]; Day 1-36, 10 g/kg feed): 101.7
Weight gain, relative to control (100) ([3]; Day 1-36, 10 g/kg feed): 102.0
Feed conversion, relative to control (100) ([3]; Day 22-36, 2.5 g/kg feed): 102.3
Weight gain, relative to control (100) ([3]; Day 22-36, 2.5 g/kg feed): 99.2
Feed conversion, relative to control (100) ([3]; Day 22-36, 5 g/kg feed): 102.1
Weight gain, relative to control (100) ([3]; Day 22-36, 5 g/kg feed): 98.0
Feed conversion, relative to control (100) ([3]; Day 22-36, 7.5 g/kg feed): 103.2
Weight gain, relative to control (100) ([3]; Day 22-36, 7.5 g/kg feed): 100.2
Feed conversion, relative to control (100) ([3]; Day 22-36, 10 g/kg feed): 106.9
Weight gain, relative to control (100) ([3]; Day 22-36, 10 g/kg feed): 97.3

From US20110189347A1, “USE OF SUCCINIC ACID” (priority 2008, published 2011)
